From patent publication US11472788B2, “Benzoimidazoles as selective inhibitors of indoleamine 2,3-dioxygenases” (BEIGENE, LTD., priority 2017, dated 2022)

Protein sequences, listed by entry. Tags and fused reporters are not part of them.
UniProt P14902, whole entry: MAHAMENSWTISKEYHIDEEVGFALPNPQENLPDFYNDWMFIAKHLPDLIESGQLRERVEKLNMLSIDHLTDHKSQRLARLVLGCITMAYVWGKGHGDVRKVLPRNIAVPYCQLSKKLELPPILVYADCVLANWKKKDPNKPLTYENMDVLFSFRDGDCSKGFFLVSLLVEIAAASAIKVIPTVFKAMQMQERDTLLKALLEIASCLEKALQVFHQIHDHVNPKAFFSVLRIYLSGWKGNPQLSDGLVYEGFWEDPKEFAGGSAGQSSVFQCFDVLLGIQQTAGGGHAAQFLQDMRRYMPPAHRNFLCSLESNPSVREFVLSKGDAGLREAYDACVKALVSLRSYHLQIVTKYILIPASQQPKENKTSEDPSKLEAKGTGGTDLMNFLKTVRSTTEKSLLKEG

What follows are compounds tested against cellular IDO1 in HeLa cells (Homo sapiens (Human), UniProt P14902) (assay: HeLa Cell-Based IDO1 Kyn (Kynurenine) Production Assay). Conditions: read-out: Cell-Based EC50 (nM) Hela IDO1, IFN-γ induced IDO1, 48 hours incubation, Kyn absorbance at 480 nm.
Method: HeLa Cell-Based IDO1 Kyn (Kynurenine) Production Assay:
The inhibitory activity of IDO1 inhibitors is determined by using a colorimetric reaction to measure Kyn generated from L-Trp (L-Tryptophon) oxidation by cellular IDO1 in HeLa cells after induction of IDO1 expression by IFN-γ.
Hela cells were obtained from the American Type Culture Collection and recovered in 10% FBS-containing phenol red-free DMEM medium. Cells were plated onto a 96-well plate (100 μl/well) at 8000 cells per well and kept at 37° C. in a humidified incubator supplied with 5% CO2. 4 hours later, Human recombinant IFN-γ (8901SC, CST) was added to cells (final concentration 100 ng/mL) to stimulate endogenous IDOL. Compounds at different concentrations diluted in dimethylsulfoxide (DMSO) were added simultaneously with IFN-γ and 0.4 mM L-Trp. Cells were kept at 37° C. in a humidified incubator supplied with 5% CO2. After 48 hours of incubation, 100 μl supernatant from each well was removed to a new plate. The protein in the medium was precipitated with the addition of 8 μl 6N trichloroacetic acid. The plate was incubated at 60° C. for 30 minutes and then centrifugation at 2500 rpm for 10 minutes to remove sediments. 80 μl supernatants were carefully removed to a new clean plate and added with an equal volume of 2% 4-(Dimethylamino)benzaldehyde (D2004, sigma) dissolved in glacial acetic acid. The absorbance at 480 nm wavelength derived from Kyn was measured using a PHERAstar FS plate reader (BMG LABTECH). The IC5C for each compound was derived from fitting the dose-response data to the four-parameter logistic model by using XLfit software (IDBS).
`C[C@@H](c1nc2cc(F)c(-c3cccnc3)cc2[nH]1)[C@H]1CC[C@@H](c2ccnc3ccc(F)cc32)CC1` was tested, and the EC50 was 4.7 nM.
For `C[C@@H](c1nc2cc(F)c(-c3ccncc3)cc2[nH]1)[C@H]1CC[C@@H](c2ccnc3ccc(F)cc32)CC1`, the EC50 was 24.3 nM.
For `C[C@H](c1nc2cc(F)c(-c3ccncc3)cc2[nH]1)[C@H]1CC[C@@H](c2ccnc3ccc(F)cc32)CC1`, the EC50 was 50 nM.
